Curated experimental data: properties

Values as listed in the OPERA 2.9 repository of K. Mansouri.

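These are experimental values that the OPERA curators gathered from public databases to train and test their QSAR models. One number stands for a compound and property, with no spread given. Conditions of the individual experiments are not part of the data. Where a salt, mixture or single isomer is drawn, the source does not say that exactly this form was tested. Some upstream entries may be estimates or bounds without being marked so.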

The melting point is given in degrees Celsius.
The boiling point refers to atmospheric pressure (760 mmHg), by the definition of the set.
logP is the log10 of the octanol-water partition coefficient; higher is more lipophilic.
Water solubility is log10 of mol/L, nominally at 25 °C; higher is more soluble.
Vapor pressures (log10 mmHg) refer to near room temperature, 15 to 30 °C; higher is more volatile.
The unbound fraction in human plasma runs from 0 (all bound) to 1 (all free).
Intrinsic clearance (human, µL/min per 10^6 hepatocytes): higher is faster turnover, and 0 stands for none detected.
Cells with "–" have no entry in this list.

CC(C)(C)c1ccc(N)cc1 [4-tert-butylaniline] has fraction unbound 0.155 and intrinsic clearance 10.7 µL/min/10^6 cells. For CCOC(=O)OC(C)OC(=O)[C@@H]1N2C(=O)[C@@H](NC(=O)[C@H](N)c3ccccc3)[C@H]2SC1(C)C (some centres not stated) [Bacampicillin] the data give log S -3.578 (log10 mol/L) and fraction unbound 0.8. The entry for CC=CC(C)(O)CCC=C(C)C (centres undefined) [4,8-Dimethylnona-2,7-dien-4-ol] lists BP 215 °C and log S -2.402 (log10 mol/L) and log vapor pressure -1.222 (log10 mmHg). C[N+](C)=CCC(O)CC(=N)[O-].Cl (centres undefined) is reported with melting point 207.1 °C and log Kow -4 and log vapor pressure -6.305 (log10 mmHg). CO[C@@H]1C=CO[C@]2(C)Oc3c(C)c(O)c4c(c3C2=O)C(=N)C(N)=C(NC(=O)C(C)=CC=C[C@@H](C)[C@@H](O)[C@H](C)[C@H](O)[C@H](C)[C@@H](OC(C)=O)[C@H]1C)C4=O has melting point 155 °C and log Kow 3.8 and log S -4.598 (log10 mol/L).

For CCCCCc1ccccc1 [Pentylbenzene] the data give log S -4.64 (log10 mol/L) and log vapor pressure -0.358 (log10 mmHg). The entry for OCCC1CCCCN1 (centres undefined) [2-Piperidineethanol] lists log Kow 0.263 and log vapor pressure -2.139 (log10 mmHg). The entry for CC1=CCCC(C)(C)C1CCC(C)C=O (centres undefined) [2-Methyl-4-(2,6,6-trimethylcyclohex-2-en-1-yl)butanal] lists BP 267.3 °C and log Kow 5.9 and log S -5.097 (log10 mol/L) and log vapor pressure -0.852 (log10 mmHg). For CCCC1CCC(=O)CC1 [4-Propylcyclohexanone] the data give melting point -40.5 °C and log Kow 2.62 and log S -1.855 (log10 mol/L) and log vapor pressure -0.754 (log10 mmHg). For FC(F)(I)C(F)(F)C(F)(F)C(F)(F)I [Perfluoro-1,4-diiodobutane] the data give log Kow 3.8 and log vapor pressure 0.989 (log10 mmHg).

Clc1cc(Oc2c(Cl)c(Cl)c(Cl)c(Cl)c2Cl)c(Cl)c(Cl)c1Cl is reported with melting point 158 °C and log S -11 (log10 mol/L). CNc1ccc(O)cc1 [N-Methyl-p-aminophenol] is reported with melting point 87 °C and log Kow 0.882 and log vapor pressure -2.513 (log10 mmHg). Nc1ncccc1Br [2-Amino-3-bromopyridine] is reported with log Kow 1.5 and log vapor pressure -2.038 (log10 mmHg). CCCCOc1ccc(-c2ccc(-c3ccc(CC)cc3)c(F)c2)c(F)c1F has melting point 83 °C and BP 413.5 °C and log S -6.983 (log10 mol/L) and log vapor pressure -7.292 (log10 mmHg). Listed for Nc1ncnc2c1ncn2[C@@H]1O[C@H](COP(=O)(O)O)[C@@H](O)[C@H]1O [Adenosine 5'-phosphate]: log Kow -1.81 and log vapor pressure -4.281 (log10 mmHg).

For COc1cc2c(Nc3ccc(Br)cc3F)ncnc2cc1OCC1CCN(C)CC1 [Vandetanib] the data give log Kow 5 and log S -3.481 (log10 mol/L). For CNc1ccc(C(O)(c2ccc(N(C)C)cc2)c2ccc(N(C)C)cc2)cc1 [4,4'-Bis(dimethylamino)-4''-(methylamino)trityl alcohol] the data give melting point 160 °C and log S -3.509 (log10 mol/L). The entry for C#CCOCc1ccc(Cl)cc1 [1-Chloro-4-[(2-propyn-1-yloxy)methyl]benzene] lists melting point -13 °C and log Kow 3 and log S -2.998 (log10 mol/L) and log vapor pressure -1.871 (log10 mmHg). CN1CCC(OC(c2ccccc2)c2ccccc2)CC1 [Diphenylpyraline] is reported with log Kow 3.7 and log S -4.175 (log10 mol/L). COC(=O)C(F)(F)C(F)OC(F)(F)C(F)(F)C(F)(F)OC(F)(F)F (centres undefined) [Methyl perfluoro-3-(3-methoxypropoxy)-3H-propanoate] has BP 149.5 °C and log vapor pressure 0.271 (log10 mmHg).

For CCn1cc[n+](C)c1.F[B-](F)(F)F [1-Ethyl-3-methylimidazolium tetrafluoroborate] the data give log Kow 0.012 and log vapor pressure -7.637 (log10 mmHg). For CC(O)CN(CC(C)O)C(=O)COC(=O)c1ccccc1 (centres undefined) [2-[Bis(2-hydroxypropyl)amino]-2-oxoethyl benzoate] the data give melting point 106 °C and log S -1.179 (log10 mol/L). Cc1cc(C(C)(C)C)cc(C)c1CC#N [Benzeneacetonitrile, 4-(1,1-dimethylethyl)-2,6-dimethyl-] has melting point 85 °C and log S -4.702 (log10 mol/L). The entry for CCCCOCCCN1C(C(C(=O)Nc2cc(C(C)(C)C)ccc2SCC(CC)CCCC)N2C(=O)OC(C)(C)C2=O)=Nc2ccccc2S1(=O)=O (centres undefined) lists melting point 127 °C and log S -6.976 (log10 mol/L) and log vapor pressure -4.727 (log10 mmHg).

A selection of 4 entries from above:

structure (SMILES)	name	melting point (°C)	BP (°C)	log Kow	log S (log10 mol/L)	log vapor pressure (log10 mmHg)	fraction unbound	intrinsic clearance (µL/min/10^6 cells)
CC(C)(C)c1ccc(N)cc1	4-tert-butylaniline	–	–	–	–	–	0.155	10.7
C#CCOCc1ccc(Cl)cc1	1-Chloro-4-[(2-propyn-1-yloxy)methyl]benzene	-13	–	3	-2.998	-1.871	–	–
CCCC1CCC(=O)CC1	4-Propylcyclohexanone	-40.5	–	2.62	-1.855	-0.754	–	–
COC(=O)C(F)(F)C(F)OC(F)(F)C(F)(F)C(F)(F)OC(F)(F)F (centres undefined)	Methyl perfluoro-3-(3-methoxypropoxy)-3H-propanoate	–	149.5	–	–	0.271	–	–